Antibody variant affinities, Ab-95 light chain, assay 2

The target is the same throughout: PDVDLGDISGINAS, from the HR2 region of SARS-CoV-2 spike.

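The parent was found by panning a naive human phage display library on the peptide. Variants in AAYL52 differ from the parent at up to three CDR positions; double and triple changes were sampled at random. Affinity was read by AlphaSeq, a pooled yeast mating assay with surface-displayed partners. Binding brings cells together so that they mate, and sequencing counts the barcode pairs among the diploids. Read counts were normalised to the haploid input and turned into Kd by a linear fit to BCL2-family pairs of known affinity, for each replicate. Each pool was mated in three replicate cultures.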

Parent scFv Ab-95: VH joined to VL by three GGGGS repeats. Changes lie in the light chain CDRs alone.
VH: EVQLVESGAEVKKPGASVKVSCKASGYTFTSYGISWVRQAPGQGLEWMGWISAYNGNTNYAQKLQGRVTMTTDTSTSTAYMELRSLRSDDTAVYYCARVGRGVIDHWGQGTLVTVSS
VL: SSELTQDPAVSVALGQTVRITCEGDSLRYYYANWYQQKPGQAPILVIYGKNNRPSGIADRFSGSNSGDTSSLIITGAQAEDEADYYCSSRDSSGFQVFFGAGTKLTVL

Sequences are complete VL domains. Every variant below is changed at S55 of the VL (sequential numbering). Kd is apparent (estimated from mating counts) and averaged on the log scale over replicates with a signal. Smaller is tighter. Where no diploid with the target was found in any replicate, the entry reads "nd": below detection, most likely a poor binder, though not proof of it. Background: pairings of library AAYL52 with three empty control strains gave a value in 28% of cases (median 8.2 µM, 5th percentile 800 nM). Values in that range, when seen in few replicates, are hard to tell from nonspecific mating. In this assay the parent's reference entry averaged 200 nM; its copy inside this library read 180 nM.

- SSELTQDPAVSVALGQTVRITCEGDSLRYWYANWYQQKPGQAPILVIYVKNNRPEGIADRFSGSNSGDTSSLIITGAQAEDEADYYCSSRDSSGFQVFFGAGTKLTVL -> 480 µM (1 of 3 replicates)
- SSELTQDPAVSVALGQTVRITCEGDSLRYYYAGWYQQKPGQAPILVIYGKNNRPCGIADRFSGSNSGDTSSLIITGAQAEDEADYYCSSRDSSGFQVFFGAGTKLTVL -> 260 µM (1 of 3 replicates)
- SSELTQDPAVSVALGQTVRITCEGDSLRYYYANWYQQKPGQAPILVIYGKNNRPHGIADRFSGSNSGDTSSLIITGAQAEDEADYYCSSRDSSGFHVFFGAGTKLTVL -> 320 nM (3 of 3 replicates)
- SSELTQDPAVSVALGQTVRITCEHDSLRYYYANWYQQKPGQAPILVIYGKNNYPRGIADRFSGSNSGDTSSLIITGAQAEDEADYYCSSRDSSGFQVFFGAGTKLTVL -> nd (0 of 3 replicates)
- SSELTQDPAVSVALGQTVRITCEGDSLRYYYANWYQQKPGQAPILVIYGKNNRPYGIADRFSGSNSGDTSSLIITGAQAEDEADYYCSSRDSSGFTVFFGAGTKLTVL -> 360 nM (3 of 3 replicates)
- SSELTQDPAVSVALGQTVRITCEGDSLRYYYANWYQQKPGQAPILVIYGKAHRPWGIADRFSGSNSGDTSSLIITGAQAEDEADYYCSSRDSSGFQVFFGAGTKLTVL -> 42 µM (2 of 3 replicates)
- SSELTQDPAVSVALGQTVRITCEGDSLRYYYANWYQQKPGQAPILVIYGKNNRPEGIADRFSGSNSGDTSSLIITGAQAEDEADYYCESADSSGFQVFFGAGTKLTVL -> 4.0 µM (2 of 3 replicates)
- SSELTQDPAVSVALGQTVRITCEGDSLRYYYANWYQQKPGQAPILVIYGTNNRPPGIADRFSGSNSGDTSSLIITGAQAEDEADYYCSSCDSSGFQVFFGAGTKLTVL -> 37 µM (1 of 3 replicates)
- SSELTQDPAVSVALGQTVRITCEGDSLRYYYANWYQQKPGQAPILVIYGKNNRPEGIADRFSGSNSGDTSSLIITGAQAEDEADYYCSCDDSSGFQVFFGAGTKLTVL -> 640 nM (2 of 3 replicates)
- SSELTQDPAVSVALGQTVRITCEGDSLRYYYAEWYQQKPGQAPILVIYGSNNRPEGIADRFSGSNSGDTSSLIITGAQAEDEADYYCSSRDSSGFQVFFGAGTKLTVL -> nd (0 of 3 replicates)
- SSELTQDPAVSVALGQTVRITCEGDSLRYYYANWYQQKPGQAPILVIYGKNNRPVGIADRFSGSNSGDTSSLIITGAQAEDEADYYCQSRDSSGFQVAFGAGTKLTVL -> nd (0 of 3 replicates)
- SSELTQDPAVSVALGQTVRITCEGDSLRLYYANWYQQKPGQAPILVIYGKTNRPKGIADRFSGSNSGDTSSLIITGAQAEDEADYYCSSRDSSGFQVFFGAGTKLTVL -> 44 µM (2 of 3 replicates)
- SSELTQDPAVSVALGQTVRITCEGDALRYYHANWYQQKPGQAPILVIYGKNNRPVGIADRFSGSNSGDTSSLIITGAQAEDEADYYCSSRDSSGFQVFFGAGTKLTVL -> 95 nM (3 of 3 replicates)
- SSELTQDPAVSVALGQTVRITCEGDSLRYYYANWYQQKPGQAPILVIYGKNNRPPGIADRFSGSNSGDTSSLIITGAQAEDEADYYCSSHDSSYFQVFFGAGTKLTVL -> 3.4 µM (2 of 3 replicates)
- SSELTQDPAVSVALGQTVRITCEGDCLRYYYANWYQQKPGQAPILVIYGKNNRPLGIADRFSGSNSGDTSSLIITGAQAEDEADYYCSSWDSSGFQVFFGAGTKLTVL -> nd (0 of 3 replicates)

For reference, 2 entries of the list once more:

| VL | Kd | replicates with signal |
|---|---|---|
| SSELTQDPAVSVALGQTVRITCEHDSLRYYYANWYQQKPGQAPILVIYGKNNYPRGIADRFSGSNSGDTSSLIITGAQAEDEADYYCSSRDSSGFQVFFGAGTKLTVL | nd | 0 of 3 |
| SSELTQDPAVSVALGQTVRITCEGDSLRYYYANWYQQKPGQAPILVIYGKNNRPHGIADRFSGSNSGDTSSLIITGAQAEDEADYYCSSRDSSGFHVFFGAGTKLTVL | 320 nM | 3 of 3 |

Source: Engelhart et al. 2022 (doi:10.1038/s41597-022-01779-4), MIT Lincoln Laboratory and A-Alpha Bio; data file from the FLAb repository.